Measurements published in PMC8151276, “An Integrated Approach toward NanoBRET Tracers for Analysis of GPCR Ligand Engagement” (Molecules, 2021).
“And” between values parts separate entries of the source, which are not always exact repeats. Equal values may be shown once.

Chains of the proteins cited; added tags and fusions are not shown. Lines headed by an entry give the natural chain unless they say otherwise; changes in a name come on top.
UniProt P08173, whole entry: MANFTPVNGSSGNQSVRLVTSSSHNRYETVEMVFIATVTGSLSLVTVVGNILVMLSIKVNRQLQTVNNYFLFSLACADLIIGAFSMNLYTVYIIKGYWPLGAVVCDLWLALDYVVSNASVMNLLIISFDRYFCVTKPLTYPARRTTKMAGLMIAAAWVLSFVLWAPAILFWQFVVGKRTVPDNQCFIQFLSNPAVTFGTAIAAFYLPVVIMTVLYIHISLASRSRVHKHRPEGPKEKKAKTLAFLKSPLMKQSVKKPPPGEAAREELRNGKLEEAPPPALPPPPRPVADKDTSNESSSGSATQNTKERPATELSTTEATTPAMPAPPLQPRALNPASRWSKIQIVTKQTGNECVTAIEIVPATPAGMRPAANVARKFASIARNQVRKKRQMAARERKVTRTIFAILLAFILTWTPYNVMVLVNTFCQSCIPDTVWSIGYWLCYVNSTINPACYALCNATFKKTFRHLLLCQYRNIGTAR
UniProt P08912, whole entry: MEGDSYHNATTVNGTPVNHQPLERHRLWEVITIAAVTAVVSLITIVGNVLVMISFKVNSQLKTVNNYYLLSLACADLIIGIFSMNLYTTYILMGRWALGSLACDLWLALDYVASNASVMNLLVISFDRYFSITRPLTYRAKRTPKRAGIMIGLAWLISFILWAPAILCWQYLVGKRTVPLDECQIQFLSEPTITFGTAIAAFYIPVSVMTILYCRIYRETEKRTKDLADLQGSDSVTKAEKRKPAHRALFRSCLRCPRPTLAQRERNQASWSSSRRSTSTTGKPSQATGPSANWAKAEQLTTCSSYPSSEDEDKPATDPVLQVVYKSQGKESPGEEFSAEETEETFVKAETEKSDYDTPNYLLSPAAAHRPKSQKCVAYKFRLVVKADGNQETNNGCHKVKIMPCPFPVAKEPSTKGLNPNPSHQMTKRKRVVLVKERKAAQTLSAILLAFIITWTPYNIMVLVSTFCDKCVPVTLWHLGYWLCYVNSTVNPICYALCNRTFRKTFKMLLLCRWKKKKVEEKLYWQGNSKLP
UniProt P18089, whole entry: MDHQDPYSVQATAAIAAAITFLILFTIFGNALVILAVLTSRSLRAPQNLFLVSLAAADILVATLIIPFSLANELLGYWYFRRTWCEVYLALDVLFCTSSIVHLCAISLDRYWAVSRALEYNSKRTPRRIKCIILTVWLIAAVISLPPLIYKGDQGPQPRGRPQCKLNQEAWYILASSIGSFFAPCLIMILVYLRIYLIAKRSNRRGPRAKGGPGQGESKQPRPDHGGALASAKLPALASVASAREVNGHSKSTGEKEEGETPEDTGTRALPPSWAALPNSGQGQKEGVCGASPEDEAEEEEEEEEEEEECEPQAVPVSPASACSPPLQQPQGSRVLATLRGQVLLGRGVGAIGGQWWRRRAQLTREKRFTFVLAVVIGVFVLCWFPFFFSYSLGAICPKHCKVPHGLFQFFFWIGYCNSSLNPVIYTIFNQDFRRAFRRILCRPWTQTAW
UniProt P20309, whole entry: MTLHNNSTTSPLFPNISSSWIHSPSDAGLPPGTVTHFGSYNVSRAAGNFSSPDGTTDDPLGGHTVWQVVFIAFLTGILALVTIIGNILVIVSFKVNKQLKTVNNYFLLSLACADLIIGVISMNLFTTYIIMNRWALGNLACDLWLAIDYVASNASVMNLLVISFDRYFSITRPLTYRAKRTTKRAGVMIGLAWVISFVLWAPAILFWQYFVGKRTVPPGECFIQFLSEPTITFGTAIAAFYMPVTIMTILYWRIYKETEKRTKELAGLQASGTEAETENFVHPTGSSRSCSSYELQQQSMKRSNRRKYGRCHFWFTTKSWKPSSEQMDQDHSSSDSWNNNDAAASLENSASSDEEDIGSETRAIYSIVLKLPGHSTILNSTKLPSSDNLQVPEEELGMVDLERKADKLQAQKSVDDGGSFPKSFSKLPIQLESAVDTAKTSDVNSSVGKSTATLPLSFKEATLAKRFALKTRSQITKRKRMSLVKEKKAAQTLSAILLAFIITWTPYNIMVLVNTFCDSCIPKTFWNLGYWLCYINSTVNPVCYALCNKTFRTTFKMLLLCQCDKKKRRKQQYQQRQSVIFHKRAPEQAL
UniProt P35367, whole entry: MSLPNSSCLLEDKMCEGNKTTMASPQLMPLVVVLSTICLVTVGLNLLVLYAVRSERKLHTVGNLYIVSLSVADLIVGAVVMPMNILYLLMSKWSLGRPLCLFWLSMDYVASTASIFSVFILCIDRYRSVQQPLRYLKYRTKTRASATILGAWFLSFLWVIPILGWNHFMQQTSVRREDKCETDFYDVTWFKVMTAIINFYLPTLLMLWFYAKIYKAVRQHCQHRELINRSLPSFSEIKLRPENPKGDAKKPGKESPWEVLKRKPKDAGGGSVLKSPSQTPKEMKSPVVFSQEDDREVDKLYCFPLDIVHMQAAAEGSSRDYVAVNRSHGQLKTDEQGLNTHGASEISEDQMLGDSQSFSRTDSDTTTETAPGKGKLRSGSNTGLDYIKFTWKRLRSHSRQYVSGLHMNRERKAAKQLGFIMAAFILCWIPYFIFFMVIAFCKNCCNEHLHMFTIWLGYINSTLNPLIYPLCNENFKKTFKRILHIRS
UniProt P33032: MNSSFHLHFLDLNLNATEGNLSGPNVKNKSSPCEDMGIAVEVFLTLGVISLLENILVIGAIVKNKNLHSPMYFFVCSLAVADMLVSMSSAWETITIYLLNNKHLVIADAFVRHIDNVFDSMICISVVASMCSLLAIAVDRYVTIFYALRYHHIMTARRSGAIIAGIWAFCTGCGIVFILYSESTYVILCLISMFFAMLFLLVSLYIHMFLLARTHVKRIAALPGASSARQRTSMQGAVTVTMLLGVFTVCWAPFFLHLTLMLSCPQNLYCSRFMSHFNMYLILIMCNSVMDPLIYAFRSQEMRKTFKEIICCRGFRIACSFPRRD
UniProt Q9GZQ6: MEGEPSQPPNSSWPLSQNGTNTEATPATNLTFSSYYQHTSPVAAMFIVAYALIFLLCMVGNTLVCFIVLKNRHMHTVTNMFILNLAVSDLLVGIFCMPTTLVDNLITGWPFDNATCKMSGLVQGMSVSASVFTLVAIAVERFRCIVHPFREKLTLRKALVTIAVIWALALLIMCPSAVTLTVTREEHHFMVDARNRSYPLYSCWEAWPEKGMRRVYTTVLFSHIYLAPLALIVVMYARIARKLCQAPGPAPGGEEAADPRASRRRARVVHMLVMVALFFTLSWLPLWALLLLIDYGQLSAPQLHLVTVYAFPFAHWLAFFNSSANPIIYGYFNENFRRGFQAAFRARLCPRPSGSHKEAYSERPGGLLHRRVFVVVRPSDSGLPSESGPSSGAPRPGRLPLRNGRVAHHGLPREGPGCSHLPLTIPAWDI
UniProt P34972, whole entry: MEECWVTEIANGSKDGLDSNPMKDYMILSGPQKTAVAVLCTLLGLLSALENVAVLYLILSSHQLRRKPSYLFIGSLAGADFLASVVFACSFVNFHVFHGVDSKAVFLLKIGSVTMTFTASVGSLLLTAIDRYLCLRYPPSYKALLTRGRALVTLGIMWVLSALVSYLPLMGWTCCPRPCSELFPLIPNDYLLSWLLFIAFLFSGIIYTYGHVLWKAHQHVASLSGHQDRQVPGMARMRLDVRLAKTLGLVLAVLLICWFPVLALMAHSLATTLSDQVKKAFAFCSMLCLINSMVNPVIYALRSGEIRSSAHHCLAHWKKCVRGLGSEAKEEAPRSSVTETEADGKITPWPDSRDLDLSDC

How the values were obtained:
[1] = biological target: T1, CHRM4 (Homo sapiens, UniProt P08173); test: NanoBRET screen HiBiT-CHRM4 in HEK293; assay type: binding; conditions: tracer at 0.1μM
T1 construct: purchased Promega (in-house HiBiT-GPCR construct library, NanoBRET)
Description: (§1) Each tracer candidate was screened across the entire library of HiBiT-GPCR constructs using NanoBRET as the detection modality. As depicted in Figure 4A, the specificity of interactions was evaluated through decrease in BRET due to competitive displacement of a bound tracer by excess parental compound. Each tracer was analyzed for binding to each HiBiT-GPCR fusion in the absence and in the presence of competing parental compound. Briefly, HEK293 cells were transfected with HiBiT-GPCR constructs diluted into promoterless DNA to reduce expression and maximize translocation to the cell surface. Each tracer candidate was then screened at concentrations of 1 μM and 0.1 μM across cells expressing these fusions. Cells were treated for 1.5 h with tracer either alone or in the presence of 20 μM competing parental compound (i.e., control). BRET was measured upon addition of purified LgBiT and subsequent complementation with HiBiT genetically fused to a GPCR. The specificity of interactions was assessed through a decrease in BRET signal due to competitive displacement of the bound tracer. To further gauge the robustness of these interactions, the fold response over the control (i.e., BRETtracer/BRETcontrol) was calculated. We chose a 1.5-fold response, which translates to ≥7-fold signal over noise as the minimal threshold required to score an interaction as positive. […]. […]

[2] = biological target: T2, CHRM5 (Homo sapiens, UniProt P08912); test: NanoBRET screen HiBiT-CHRM5 in HEK293; assay type: binding; conditions: tracer at 0.1μM
T2 construct: purchased Promega (in-house HiBiT-GPCR construct library, NanoBRET)
Description: as §1

[3] = biological target: T3, ADRA2B (Homo sapiens, UniProt P18089); test: NanoBRET screen HiBiT-ADRA2B in HEK293; assay type: binding
T3 construct: purchased Promega (in-house HiBiT-GPCR construct library, NanoBRET)

[4] = biological target: T4, CHRM3 (Homo sapiens, UniProt P20309); test: NanoBRET screen HiBiT-CHRM3 in HEK293; assay type: binding
T4 construct: purchased Promega (in-house HiBiT-GPCR construct library, NanoBRET)

[5] = biological target: T5, HRH1 (Homo sapiens, UniProt P35367); test: NanoBRET screen HiBiT-HRH1 in HEK293; assay type: binding
T5 construct: purchased Promega (in-house HiBiT-GPCR construct library, NanoBRET)

[6] = biological target: T6, MC5R (Homo sapiens, UniProt P33032); test: NanoBRET screen HiBiT-MC5R in HEK293; assay type: binding; conditions: tracer 0.1μM
T6 construct: purchased Promega (in-house HiBiT-GPCR construct library, NanoBRET)
Description: (§2) Each tracer candidate was screened across the entire library of HiBiT-GPCR constructs using NanoBRET as the detection modality. As depicted in Figure 4A, the specificity of interactions was evaluated through decrease in BRET due to competitive displacement of a bound tracer by excess parental compound. Each tracer was analyzed for binding to each HiBiT-GPCR fusion in the absence and in the presence of competing parental compound. Briefly, HEK293 cells were transfected with HiBiT-GPCR constructs diluted into promoterless DNA to reduce expression and maximize translocation to the cell surface. Each tracer candidate was then screened at concentrations of 1 μM and 0.1 μM across cells expressing these fusions. Cells were treated for 1.5 h with tracer either alone or in the presence of 20 μM competing parental compound (i.e., control). BRET was measured upon addition of purified LgBiT and subsequent complementation with HiBiT genetically fused to a GPCR. The specificity of interactions was assessed through a decrease in BRET signal due to competitive displacement of the bound tracer. To further gauge the robustness of these interactions, the fold response over the control (i.e., BRETtracer/BRETcontrol) was calculated. We chose a 1.5-fold response, which translates to ≥7-fold signal over noise as the minimal threshold required to score an interaction as positive. […]. Below we highlight the screening results obtained for our exemplary fluorescent tracers based on Clozapine, Amitriptyline and AZD1283.
(§3) HiBiT-GPCR DNA constructs were diluted in 10 mM Tris pH 8 to a final concentration of 0.01 μg/μL, arrayed in 96-well plates and stored at −20 °C. For transfection, HEK293 cells were suspended in Opti-MEM (without phenol red) supplemented with 2% fetal bovine serum (Seradigm) and 100 units/mL penicillin–streptomycin (Gibco) at a final concentration of 220,000 cells/mL and dispensed into white 96-well plates at 90 μL/well. Subsequent transfections and screens were carried using an Agilent Bravo Automated Liquid Handling Platform. First, the 96-well HiBiT DNA arrays were diluted 25-fold in Opti-MEM (without serum or phenol red) to a final concentration of 0.0004 μg/μL and 20 μL of the diluted DNAs were transferred into new 96-well plates. Next, promoterless carrier DNA (1 μg/μL) was diluted 25-fold (0.04 μg/μL) and then dispensed into the diluted arrays at 20 μL/well. Following brief mixing, Viafect transfection reagent (Promega) diluted 16-fold into Opti-MEM was dispensed into the plates at 40 μL/well. After mixing by pipetting, plates were incubated for 10 min on the pipetting station deck. The DNA-transfection reagent complexes were then added to plates containing cells. To facilitate the screen, 10 μL of DNA-transfection reagent complexes were added in duplicates to the top 4 and bottom 4 rows, resulting in two identical 48-well arrays per plate. Plates with transfected cells were incubated for 18–20 h at 37 °C/5% CO2. A screen of each tracer across the entire library using two different concentrations requires duplicate plates of transfected cells. Depending on the number of tracers being screened, transfections can be scaled up using the same ratios. The next day, for each tracer, four 20× screening solutions in tracer dilution buffer (Promega) were prepared: two duplicates at final concentration of 20 μM and two duplicates at a final concentration of 2 μM. A competing unmodified compound was added to one of each duplicate at a final concentration of 400 μM. […]

[7] = biological target: T7, CCR10 (Homo sapiens, UniProt P46092); test: NanoBRET screen HiBiT-CCR10 in HEK293; assay type: binding; conditions: CCR10, tracer 0.1μM
T7 construct: purchased Promega (in-house HiBiT-GPCR construct library, NanoBRET)
T7 sequence (P46092 1-362): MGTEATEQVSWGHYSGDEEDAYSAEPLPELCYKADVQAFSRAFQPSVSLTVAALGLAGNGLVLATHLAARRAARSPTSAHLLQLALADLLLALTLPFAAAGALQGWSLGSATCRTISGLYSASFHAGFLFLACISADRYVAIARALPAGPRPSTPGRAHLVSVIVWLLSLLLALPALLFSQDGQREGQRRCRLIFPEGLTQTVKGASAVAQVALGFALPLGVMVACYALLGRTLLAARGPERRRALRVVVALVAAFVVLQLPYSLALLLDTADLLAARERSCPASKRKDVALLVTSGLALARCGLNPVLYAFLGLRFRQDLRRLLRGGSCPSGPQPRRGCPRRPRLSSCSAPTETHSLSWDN
Description: as §1

[8] = biological target: T8, FZD10 (Homo sapiens, UniProt Q9ULW2); test: NanoBRET screen HiBiT-FZD10 in HEK293; assay type: binding; conditions: tracer 0.1μM
T8 construct: purchased Promega (in-house HiBiT-GPCR construct library, NanoBRET)
T8 sequence (Q9ULW2 21-581): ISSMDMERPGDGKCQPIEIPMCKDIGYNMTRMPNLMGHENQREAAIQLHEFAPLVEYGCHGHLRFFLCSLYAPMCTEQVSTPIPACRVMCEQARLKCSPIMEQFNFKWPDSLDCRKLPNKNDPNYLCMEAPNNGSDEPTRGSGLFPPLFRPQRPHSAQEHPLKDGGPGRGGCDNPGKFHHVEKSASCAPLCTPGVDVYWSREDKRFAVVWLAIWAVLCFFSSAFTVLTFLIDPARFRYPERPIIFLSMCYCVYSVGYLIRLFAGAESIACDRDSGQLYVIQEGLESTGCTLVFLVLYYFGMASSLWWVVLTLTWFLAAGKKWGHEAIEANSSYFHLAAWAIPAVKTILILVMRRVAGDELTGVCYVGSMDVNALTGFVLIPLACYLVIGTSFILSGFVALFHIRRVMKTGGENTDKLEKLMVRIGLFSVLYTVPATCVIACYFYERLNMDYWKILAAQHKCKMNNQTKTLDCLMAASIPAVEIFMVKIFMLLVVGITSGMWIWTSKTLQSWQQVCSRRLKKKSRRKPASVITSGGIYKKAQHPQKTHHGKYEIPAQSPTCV
Description: as §1

[9] = biological target: T9, NPSR1 (Homo sapiens, UniProt Q6W5P4); test: NanoBRET screen HiBiT-NPSR1 in HEK293; assay type: binding; conditions: tracer 0.1μM
T9 construct: purchased Promega (in-house HiBiT-GPCR construct library, NanoBRET)
T9 sequence (Q6W5P4 1-371): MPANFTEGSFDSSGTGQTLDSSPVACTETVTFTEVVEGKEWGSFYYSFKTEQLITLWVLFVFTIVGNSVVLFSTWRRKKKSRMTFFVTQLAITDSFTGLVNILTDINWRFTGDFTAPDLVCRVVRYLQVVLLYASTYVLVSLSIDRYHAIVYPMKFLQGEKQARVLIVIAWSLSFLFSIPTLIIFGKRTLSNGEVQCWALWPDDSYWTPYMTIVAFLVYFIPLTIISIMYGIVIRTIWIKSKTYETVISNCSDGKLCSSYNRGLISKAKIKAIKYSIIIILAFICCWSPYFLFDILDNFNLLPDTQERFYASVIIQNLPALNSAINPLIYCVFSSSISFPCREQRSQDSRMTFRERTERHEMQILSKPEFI
Description: as §1

[10] = biological target: T10, NPFFR1 (Homo sapiens, UniProt Q9GZQ6); test: NanoBRET screen HiBiT-NPFFR1 in HEK293; assay type: binding; conditions: NPFFR1; tracer 1μM
T10 construct: purchased Promega (in-house HiBiT-GPCR construct library, NanoBRET)
Description: as §2, §3

[11] = biological target: T11, CNR2 (Homo sapiens, UniProt P34972); test: NanoBRET screen HiBiT-CNR2 in HEK293; assay type: binding; conditions: tracer 0.1μM
T11 construct: purchased Promega (in-house HiBiT-GPCR construct library, NanoBRET)
Description: as §1

[12] = test system: alpha-Adrenergic receptors; test: Competitive displacement of Clozapine-a-2-NB590 by unmodified scaffold (NanoBRET); assay type: binding, human; conditions: ADRA2C; other tracer 1μM, displaced by unmodified XAC
Description: Finally, we opted to compare the machine learning predictions for the 17 scaffolds to the empirical NanoBRET evaluations across 36 GPCR families investigated by both strategies (Figure 7). […] At the same time, empirical NanoBRET results for each scaffold were consolidated to include results for all relevant fluorescent tracer candidates screened at either 1 μM or 0.1 μM tracer concentrations. […] These additional verifications were incorporated to the comparative analysis and are also included in the compiled screening results (Supplementary Materials Excel spreadsheet).

CN(C)CCC=C1c2ccccc2CCc2ccc(C(=O)NCCNC(=O)CCOCCOCCOCCOCCNC(=O)CCc3ccc4n3[B-](F)(F)[N+]3=C(c5ccc[nH]5)C=CC3=C4)cc21 [Amitriptyline-a-2-NB590]
NanoBRET Fold Response [1]: 1.26 | NanoBRET Fold Response [2]: 1.04

O=C(CCc1ccc2n1[B-](F)(F)[N+]1=C(c3ccc[nH]3)C=CC1=C2)NCc1ccc(C(=O)NCCOCCC(=O)N[C@@H]2CC[C@@]3(O)[C@H]4Cc5ccc(O)c6c5[C@@]3(CCN4CC3CC3)[C@H]2O6)cc1 [Naltrexone-3-NB590]
NanoBRET Fold Response [3]: 0.77 and 0.73 | NanoBRET Fold Response [4]: 1.00 and 0.86 | NanoBRET Fold Response [5]: 0.83 and 1.38 | NanoBRET Fold Response [6]: 1.03

Cc1nc2n(c(=O)c1CCN1CCC(c3noc4cc(F)ccc34)CC1)CCCC2OC(=O)NCCOCCOCCOCCOCCNC(=O)CCc1ccc2n1[B-](F)(F)[N+]1=C(c3ccc[nH]3)C=CC1=C2 (stereo not shown) [Risperidone-2-NB590]
NanoBRET Fold Response [7]: 1.03

CC(C)N(CC[C@H](c1ccccc1)c1cc(CCNC(=O)CCOCCOCCOCCOCCNC(=O)CCc2ccc3n2[B-](F)(F)[N+]2=C(c4ccc[nH]4)C=CC2=C3)ccc1O)C(C)C [Tolterodine-2-NB590]
NanoBRET Fold Response [8]: 1.03 | NanoBRET Fold Response [9]: 1.03 | NanoBRET Fold Response [6]: 1.03 | NanoBRET Fold Response [10]: 1.03

CC(C)N(CC[C@H](c1ccccc1)c1cc(CCNC(=O)c2ccc(CNC(=O)CCc3ccc4n3[B-](F)(F)[N+]3=C(c5ccc[nH]5)C=CC3=C4)cc2)ccc1O)C(C)C [Tolterodine-BZ-NB590]
NanoBRET Fold Response [11]: 1.03

CCCn1c(=O)c2[nH]c(-c3ccc(OCC(=O)NCCN)cc3)nc2n(CCC)c1=O [XAC (unmodified)]
NanoBRET Fold Response, other tracers/XAC (unmodified) [12]: 1.04
